Data as given in US20070059799A1 (priority 1999, published 2007).

Tested on: A3-supertype alleles
Assay: A3-supertype cross-reactive binding (A*03, A*11, A*3101, A*3301, A*6801)
Parameters: species or system human
Details: A3-supermotif cross-reactive peptides

Row | SMILES | XRN
1 | CC(C)C[C@H](NC(=O)[C@@H](NC(=O)[C@@H](N)Cc1ccccc1)C(C)C)C(=O)NCC(=O)NCC(=O)N[C@@H](CS)C(=O)N[C@@H](CCCNC(=N)N)C(=O)N[C@@H](Cc1c[nH]cn1)C(=O)N[C@@H](CCCCN)C(=O)O [peptide 1.0219] | 3

Same assay, conditions: number of A3-supertype alleles bound; 3 or more = degenerate

Row | SMILES | Alleles bound
2 | CC[C@H](C)[C@H](NC(=O)[C@H](Cc1c[nH]c2ccccc12)NC(=O)[C@@H](NC(=O)CNC(=O)[C@H](Cc1ccccc1)NC(=O)[C@H](CO)NC(=O)[C@@H](NC(=O)[C@@H](N)CC(C)C)C(C)C)C(C)C)C(=O)N[C@@H](CCCNC(=N)N)C(=O)O [Peptide 1090.08] | 1
3 | CC(C)C[C@H](NC(=O)[C@@H](NC(=O)[C@@H](N)Cc1ccccc1)C(C)C)C(=O)NCC(=O)NCC(=O)N[C@@H](CS)C(=O)N[C@@H](CCCNC(=N)N)C(=O)N[C@@H](Cc1c[nH]cn1)C(=O)N[C@@H](CCCCN)C(=O)O [peptide 1.0219] | 3

Tested on: B7-supertype alleles
Assay: B7-supertype cross-reactive binding (B*0702, B*3501, B*51, B*5301, B*5401)
Parameters: species or system human
Details: number of B7-supertype alleles bound; 3 or more = degenerate

Row | SMILES | Alleles bound
4 | CC[C@H](C)[C@H](N)C(=O)N1CCC[C@H]1C(=O)N[C@@H](CCC(N)=O)C(=O)N[C@@H](CO)C(=O)N[C@@H](CC(C)C)C(=O)N[C@@H](CC(=O)O)C(=O)N[C@@H](CO)C(=O)N[C@@H](Cc1c[nH]c2ccccc12)C(=O)N[C@@H](Cc1c[nH]c2ccccc12)C(=O)O [Peptide 15.0030] | 1
5 | CC[C@H](C)[C@H](NC(=O)[C@@H]1CCCN1C(=O)[C@@H](N)CC(C)C)C(=O)N[C@@H](Cc1ccccc1)C(=O)N[C@@H](Cc1ccccc1)C(=O)N[C@@H](CS)C(=O)N[C@@H](CC(C)C)C(=O)N[C@@H](Cc1c[nH]c2ccccc12)C(=O)N[C@H](C(=O)O)C(C)C [Peptide 15.0034] | 2
6 | CC(C)C[C@H](NC(=O)[C@H](CCC(N)=O)NC(=O)[C@H](Cc1c[nH]cn1)NC(=O)[C@H](CC(=O)O)NC(=O)[C@@H]1CCCN1C(=O)[C@@H](N)Cc1ccccc1)C(=O)N[C@@H](CC(=O)O)C(=O)N1CCC[C@H]1C(=O)N[C@@H](C)C(=O)O [Peptide 16.0006] | 1
7 | CC[C@H](C)[C@H](NC(=O)[C@@H]1CCCN1C(=O)[C@@H](N)CC(C)C)C(=O)N[C@@H](Cc1c[nH]cn1)C(=O)N[C@H](C(=O)N[C@@H](C)C(=O)N[C@@H](CCC(=O)O)C(=O)N[C@@H](CC(C)C)C(=O)N[C@@H](CC(C)C)C(=O)N[C@@H](C)C(=O)O)[C@@H](C)O [Peptide 16.0181] | 1
8 | CC[C@H](C)[C@H](N)C(=O)N1CCC[C@H]1C(=O)N[C@H](C(=O)N1CCC[C@H]1C(=O)N[C@@H](CO)C(=O)N[C@@H](CO)C(=O)N[C@@H](Cc1c[nH]c2ccccc12)C(=O)N[C@@H](C)C(=O)O)[C@@H](C)CC [Peptide 19.0005] | 1
9 | CC[C@H](C)[C@H](NC(=O)[C@@H]1CCCN1C(=O)[C@@H](N)CC(C)C)C(=O)N[C@@H](Cc1ccccc1)C(=O)N[C@@H](Cc1ccccc1)C(=O)N[C@@H](CS)C(=O)N[C@@H](CC(C)C)C(=O)N[C@@H](Cc1c[nH]c2ccccc12)C(=O)O [Peptide 19.0007] | 2
10 | CSCC[C@H](N)C(=O)N1CCC[C@H]1C(=O)N[C@@H](CC(C)C)C(=O)N[C@@H](CO)C(=O)N[C@@H](Cc1ccc(O)cc1)C(=O)N[C@@H](CCC(N)=O)C(=O)N[C@@H](Cc1c[nH]cn1)C(=O)N[C@@H](Cc1ccccc1)C(=O)O [Peptide 19.0010] | 2
11 | CSCC[C@H](NC(=O)[C@H](C)NC(=O)[C@H](C)NC(=O)[C@@H]1CCCN1C(=O)[C@@H](N)Cc1c[nH]cn1)C(=O)N1CCC[C@H]1C(=O)N[C@@H](Cc1c[nH]cn1)C(=O)N[C@@H](CC(C)C)C(=O)O [Peptide 19.0011] | 2
12 | CC(C)C[C@H](NC(=O)[C@H](CC(C)C)NC(=O)[C@H](Cc1ccccc1)NC(=O)[C@@H]1CCCN1C(=O)[C@@H](N)CO)C(=O)N[C@@H](C)C(=O)N[C@@H](CCC(N)=O)C(=O)N[C@@H](Cc1ccccc1)C(=O)O [Peptide 19.0012] | 2
13 | CSCC[C@H](NC(=O)[C@H](CC(C)C)NC(=O)[C@H](C)NC(=O)[C@@H]1CCCN1C(=O)[C@@H](N)Cc1ccc(O)cc1)C(=O)N1CCC[C@H]1C(=O)N[C@@H](CC(C)C)C(=O)N[C@@H](Cc1ccc(O)cc1)C(=O)O [Peptide 19.0014] | 3
